Data from patent US6114132A, “Prosphatase binding assay” (Merck Frosst Canada & Co., priority 1997, dated 2000).

Chains of the proteins cited; added tags and fusions are not shown. Lines headed by an entry give the natural chain unless they say otherwise; changes in a name come on top. Residues count along the entry.
UniProt P18031, 1-320 C215S limits assumed: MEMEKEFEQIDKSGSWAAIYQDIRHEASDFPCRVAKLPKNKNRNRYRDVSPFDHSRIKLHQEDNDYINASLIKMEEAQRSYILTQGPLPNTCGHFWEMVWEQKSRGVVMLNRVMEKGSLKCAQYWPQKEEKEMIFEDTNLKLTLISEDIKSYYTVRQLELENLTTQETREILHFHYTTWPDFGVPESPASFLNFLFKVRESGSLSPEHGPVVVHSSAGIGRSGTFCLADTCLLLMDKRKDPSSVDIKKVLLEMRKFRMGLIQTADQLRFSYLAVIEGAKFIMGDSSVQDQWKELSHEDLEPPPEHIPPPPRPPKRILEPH
UniProt P18031, 1-320 limits assumed, stated change not applied: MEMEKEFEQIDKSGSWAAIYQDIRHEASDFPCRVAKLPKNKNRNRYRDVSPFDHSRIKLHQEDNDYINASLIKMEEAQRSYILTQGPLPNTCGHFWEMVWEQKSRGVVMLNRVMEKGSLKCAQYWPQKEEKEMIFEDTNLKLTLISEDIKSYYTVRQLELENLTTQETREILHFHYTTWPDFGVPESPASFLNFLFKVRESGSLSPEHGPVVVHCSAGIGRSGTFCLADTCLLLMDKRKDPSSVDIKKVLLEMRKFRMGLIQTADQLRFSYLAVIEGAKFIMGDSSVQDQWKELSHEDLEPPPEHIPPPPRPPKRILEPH

Experiments:
[1] = target: human recombinant GST-PTP1B, non-mutated (Cys215) (Homo sapiens, UniProt P18031); test: GST-PTP1B SPA binding assay with non-mutated (Cys215) enzyme; settings: read-out: IC50, Non-Mutated
[2] = target: human recombinant GST-PTP1B, mutated (Ser215) (Homo sapiens, UniProt P18031, C215S); test: GST-PTP1B SPA binding assay with mutated enzyme (Ser215); settings: read-out: IC50, Mutated

With `CC(C)C[C@H](NC(=O)[C@H](Cc1ccc(C(F)(F)P(=O)(O)O)cc1)NC(=O)[C@H](CCC(=O)O)NC(=O)[C@H](CC(=O)O)NC(=O)[C@H](C)NC(=O)[C@@H](N)CC(=O)O)C(N)=O` the IC50 [1] was 400 nM and the IC50 [2] was 100 nM.
